This is a selection; strong and weak results do not stand in their true shares. Results filed as inconclusive are left out. Activity calls are given as the source filed them. Unless noted, the call rests on the fitted dose curve; in most records, active means well fitted curve in the direction sought with a large enough effect in the repeat runs; inconclusive means weak or mixed curves; inactive means no such curve, though single readings can be large; an effect the other way counts as inactive or inconclusive.
Assays:
[1] = qHTS assay to identify small molecule agonists of the peroxisome proliferator-activated receptor delta (PPARd) signaling pathway - cell viability counter screen (AID 743211); further: on the % scale 0 is the no-effect control and ±100 the full control effect; nearly all actives have a fitted effect of over 55% in size
Outline: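 Multiplexed format: after the 2 h room-temperature LiveBLAzer B/G FRET step, CellTiter-Glo was added to the same wells. Luminescence after 30 min gave cell viability; compound exposure was 17 h at 37C.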

The chains behind the UniProt entries cited, without tags or fusion partners.
UniProt P03372, whole entry: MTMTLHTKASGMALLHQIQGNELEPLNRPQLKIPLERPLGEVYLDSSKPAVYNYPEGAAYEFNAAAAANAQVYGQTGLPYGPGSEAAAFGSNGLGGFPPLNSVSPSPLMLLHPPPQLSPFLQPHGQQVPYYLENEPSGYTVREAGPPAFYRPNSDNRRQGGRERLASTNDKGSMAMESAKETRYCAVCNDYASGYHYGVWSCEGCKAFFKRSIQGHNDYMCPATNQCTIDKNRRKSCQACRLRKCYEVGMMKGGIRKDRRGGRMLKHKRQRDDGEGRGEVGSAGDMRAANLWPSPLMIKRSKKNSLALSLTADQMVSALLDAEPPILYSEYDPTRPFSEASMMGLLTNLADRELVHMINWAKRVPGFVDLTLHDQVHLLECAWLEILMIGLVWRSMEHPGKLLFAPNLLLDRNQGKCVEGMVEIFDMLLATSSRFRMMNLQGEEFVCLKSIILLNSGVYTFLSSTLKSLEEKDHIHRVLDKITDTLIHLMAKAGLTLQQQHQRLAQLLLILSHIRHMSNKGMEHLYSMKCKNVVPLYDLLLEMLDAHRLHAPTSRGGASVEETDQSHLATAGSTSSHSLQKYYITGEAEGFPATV
UniProt P11511, whole entry: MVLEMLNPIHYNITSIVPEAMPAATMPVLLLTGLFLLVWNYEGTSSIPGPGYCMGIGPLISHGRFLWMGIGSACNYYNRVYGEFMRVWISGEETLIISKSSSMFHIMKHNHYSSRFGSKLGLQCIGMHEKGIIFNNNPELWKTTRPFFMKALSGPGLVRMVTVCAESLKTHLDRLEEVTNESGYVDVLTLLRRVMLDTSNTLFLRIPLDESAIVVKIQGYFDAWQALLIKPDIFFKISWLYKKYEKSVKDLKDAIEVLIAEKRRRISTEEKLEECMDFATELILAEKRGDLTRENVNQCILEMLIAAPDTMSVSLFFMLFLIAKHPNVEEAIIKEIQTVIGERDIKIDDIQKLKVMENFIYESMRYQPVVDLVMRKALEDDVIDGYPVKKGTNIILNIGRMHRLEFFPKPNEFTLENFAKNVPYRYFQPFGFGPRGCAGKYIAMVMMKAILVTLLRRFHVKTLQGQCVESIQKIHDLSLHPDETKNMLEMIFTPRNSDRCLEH
UniProt Q14994, whole entry: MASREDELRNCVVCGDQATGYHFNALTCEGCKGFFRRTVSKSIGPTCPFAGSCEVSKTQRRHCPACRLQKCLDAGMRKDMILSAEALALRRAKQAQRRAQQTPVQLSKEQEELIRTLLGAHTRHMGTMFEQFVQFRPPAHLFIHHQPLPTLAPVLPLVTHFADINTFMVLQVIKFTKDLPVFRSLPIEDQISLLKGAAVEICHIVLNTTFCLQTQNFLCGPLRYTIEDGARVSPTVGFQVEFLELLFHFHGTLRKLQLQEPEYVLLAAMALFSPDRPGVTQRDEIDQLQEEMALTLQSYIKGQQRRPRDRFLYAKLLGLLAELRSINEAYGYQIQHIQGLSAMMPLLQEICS

[2] = qHTS assay to identify small molecule antagonists of the estrogen related receptor signaling pathway with the pleiotropic PPARgamma coactivator (PGC) from Tox21 10K library (AID 1224841; call rule not given here; further: potency means the concentration at half of the fitted maximal effect; actives are mostly falling curves and most rising ones were filed inactive; nearly all actives have a fitted effect of over 50% in size); settings: PGC/ERR reporter cell line, ONE-Glo luciferase, 18 h
[3] = qHTS RealTime-Glo MT Cell Viability Assay in HepG2 cells - 24 hour (AID 1224867); further: on the % scale 0 is the no-effect control and ±100 the full control effect; nearly all actives have a fitted effect of over 50% in size
Outline: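 HepG2 suspension premixed with RealTime-Glo reagents is plated at 600 cells per well and left 5 h at 37 C/5% CO2. Compounds in DMSO then go in, and bioluminescence reflecting viable cell number is recorded over 40 h.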

[4] = target: Estrogen receptor (Homo sapiens) (UniProt P03372); assay: qHTS assay to identify small molecule antagonists of the estrogen receptor alpha (ER-alpha) signaling pathway using the BG1 cell line in the presence of 0.1 nM 17-beta-estradiol (AID 1259244); settings: VM7Luc4E2 (BG1) ERE-luciferase, antagonist mode, 0.1 nM E2, 22 h; further: potency means the concentration at half of the fitted maximal effect; nearly all actives have a fitted effect of over 50% in size
[5] = Caspase-3/7 induction in CHO-K1 cells by small molecules, qHTS cell viability counter screen (AID 1346979); further: nearly all actives have a fitted effect of over 35% in size; further: potency means the concentration at half of the fitted maximal effect
Outline: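 Seeding: 1,500 CHO-K1 cells/well. Rest: 5hr, 37C. Treatment: compounds in DMSO, 16hr. Read: CellTiter-Fluor, 1hr, fluorescence.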

[6] = qHTS RealTime-Glo MT Cell Viability Assay in HEK293 cells - 32 hour (AID 1224868); further: top concentration of the series differs between compounds; on the % scale 0 is the no-effect control and ±100 the full control effect; nearly all actives have a fitted effect of over 50% in size
Outline: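 Reads taken at 0, 8, 16, 24, 32 and 40 h from the same wells. HEK293 cells (600/well) carried RealTime-Glo reagents from seeding, with compound added after a 5 h settle at 37 C.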

[7] = qHTS assay to identify small molecule agonists or antagonists of the thyroid stimulating hormone receptor (TSHR) signaling pathway - wild type cell line counter screen (AID 1259384; calls by dose curve; further: on the % scale 0 is the no-effect control and ±100 the full control effect); settings: HEK293 wild type, cAMP HTRF counter-screen, active compounds read high; at 92.4 µM (top of the series)
Outline: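 Wild-type Hek293 cells, 800/well, 18 h at 37C, then compound with Ro20-1724 for 30 min RT. cAMP by HTRF (cAMP-d2/anti-cAMP cryptate), 1 h RT, fluorescence read. 15 concentrations, triplicates.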

[8] = qHTS assay for small molecules that induce genotoxicity in human embryonic kidney cells expressing luciferase-tagged ATAD5 (AID 651632); settings: HEK293T ATAD5-luciferase induction, 16 h; at 39.1 µM (top of the series); further: on the % scale 0 is the no-effect control and ±100 the full control effect; nearly all actives have a fitted effect of over 15% in size
Outline: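 A rise in luciferase signal from ATAD5-tagged HEK293T cells marks genetic stress. Cells were exposed to compounds for 16 hr at 37C, 5% CO2, then luciferase was quantified after a 30 min room-temperature incubation with Amplite.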

[9] = qHTS assay to identify small molecule antagonists of the estrogen receptor alpha (ER-alpha) signaling pathway using the BG1 cell line - cell viability counter screen (AID 743081);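 further: compound given together with 17beta-estradiol as the ER stimulus; on the % scale 0 is the no-effect control and ±100 the full control effect; nearly all actives have a fitted effect of over 45% in size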
[10] = qHTS assay to identify small molecule agonists of H2AX - cell viability counter screen (AID 1224847; calls by dose curve; further: potency means the concentration at half of the fitted maximal effect; nearly all actives have a fitted effect of over 30% in size); settings: CHO-K1 viability, CellTiter-Glo luminescence, 3 h
Outline: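 Viability of CHO-K1 (wild type) cells after 3 hr compound exposure was measured by CellTiter-Glo luminescence.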

[11] = qHTS assay to test for compound auto fluorescence at 590 nm (red) in HEK293 cell free culture (AID 720683); settings: cell-free medium autofluorescence, Ex540/Em590 red; at 91.3 µM (top of the series); further: on the % scale 0 is the no-effect control and ±100 the full control effect
Outline: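 Cell-free wells of DMEM with 10% FBS received compound, and intrinsic fluorescence was read at excitation/emission 540/590 nm. Values expressed as equivalence to Rose Bengal sodium.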

[12] = qHTS assay for identifying genotoxic compounds that show differential cytotoxicity against isogenic chicken DT40 cell lines with known DNA damage response pathways - Rad54/Ku70 mutant cell line (AID 743015); settings: DT40 Rad54/Ku70 mutant viability, CellTiter-Glo, 40 h; further: potency means the concentration at half of the fitted maximal effect; nearly all actives have a fitted effect of over 60% in size
[13] = qHTS assay to identify small molecule antagonists of the thyroid receptor (TR) signaling pathway (AID 743065); settings: GH3.TRE-Luc, T3-stimulated luciferase inhibition, 23.5 h; further: potency means the concentration at half of the fitted maximal effect; nearly all actives have a fitted effect of over 55% in size
Outline: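 GH3.TRE-Luc rat pituitary cells (two TREs driving luciferase) were dosed with compound, then stimulated with 1 nM T3 (final) for 23.5 h at 37 C. ONE-Glo luminescence was the read-out, with CellTiter-Fluor fluorescence as the cytotoxicity counter-screen.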

Aromatase (Homo sapiens) = Aromatase (Homo sapiens) (UniProt P11511); assay: qHTS assay to identify aromatase inhibitors (AID 743083); further: potency means the concentration at half of the fitted maximal effect; nearly all actives have a fitted effect of over 55% in size
[14] = qHTS assay to identify aromatase inhibitors - cell viability counter screen (AID 743084);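 further: cells stimulated with testosterone during compound exposure; potency means the concentration at half of the fitted maximal effect; nearly all actives have a fitted effect of over 55% in size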
[15] = qHTS assay to identify small molecule antagonists of the constitutive androstane receptor (CAR) signaling pathway - cell viability counter screen (AID 1224837); further: on the % scale 0 is the no-effect control and ±100 the full control effect; nearly all actives have a fitted effect of over 45% in size
Outline: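 Cytotoxicity counter-screen: CellTiter-Fluor fluorescence after 23 h compound exposure (15-point qHTS) in double-stable HepG2-CYP2B6-hCAR cells, with 50 nM CITCO added.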

[16] = target: Nuclear receptor subfamily 1 group I member 3 (Homo sapiens) (UniProt Q14994); assay: qHTS assay to identify small molecule antagonists of the constitutive androstane receptor (CAR) signaling pathway (AID 1224838); settings: HepG2-CYP2B6-hCAR luciferase, CITCO-stimulated, 24 h;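 further: HepG2 cells stably expressing hCAR with CYP2B6 luciferase reporter stimulated by CITCO; potency means the concentration at half of the fitted maximal effect; nearly all actives have a fitted effect of over 40% in size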

**Q.** With `CC(C)OP(C)(=O)OC(C)C` as the compound, how does the Potency [1] read?
**A.** inactive

**Q.** What about the Potency [2] of the same compound?
**A.** active: 27.3 µM

**Q.** And the Potency [3]?
**A.** inactive

**Q.** And the Potency [4]?
**A.** active: 27.3 µM

**Q.** And the Potency [5]?
**A.** inactive

**Q.** Which Potency [6] does the source give for `Cc1c([N+](=O)[O-])cccc1[N+](=O)[O-]` here?
**A.** inactive

**Q.** Which results are given for `O=C(Cl)OCCOC(=O)Cl`?
**A.** Potency [2]: active: 10.9 µM; cAMP activity change [7]: inactive: -1.41%

**Q.** With `C/C1=C2N=C(/C=C3N=C(/C(C)=C4\[N-][C@@](C)([C@@H]5N=C1[C@](C)(CCC(=O)NC[C@@H](C)OP(=O)([O-])O[C@H]1[C@@H](O)[C@@H](n6cnc7cc(C)c(C)cc76)O[C@@H]1CO)[C@H]5CC(N)=O)[C@@](C)(CC(N)=O)[C@@H]4CCC(N)=O)[C@@](C)(CC(N)=O)[C@@H]\3CCC(N)=O)C(C)(C)[C@@H]/2CCC(N)=O.[C-]#N.[Co+3]` as the compound, how does the activation [8] read?
**A.** inactive: -14.2%

**Q.** What about the Potency [9] of the same compound?
**A.** inactive

**Q.** What about the Potency [10] of the same compound?
**A.** active: 43.8 µM

**Q.** For `CN(N=O)C(=N)N[N+](=O)[O-]`, which fluorescence, % of fluorescent control [11] is on record?
**A.** inactive: -0.18%

**Q.** What about the Potency [12] of the same compound?
**A.** active: 15.3 µM

**Q.** What about the Potency [13] of the same compound?
**A.** active: 60.8 µM

**Q.** What about the Potency (Aromatase (Homo sapiens)) of the same compound?
**A.** active: 68.2 µM

**Q.** And the Potency [14]?
**A.** active: 68.2 µM

**Q.** And the Potency [15]?
**A.** inactive

**Q.** And the Potency [16]?
**A.** active: 17.1 µM

**Q.** And the Potency [5]?
**A.** active: 48.3 µM
